The series concerns Sprague Dawley rats. The series is described as follows: Conditioned Avoidance Response test. The note with it: rat, 0.5 mg/kg i.p. 30 minutes prior to test.

This note sets out measurements from patent publication US12606523B2, “Deuterated organic compounds and uses thereof” (ENGRAIL THERAPEUTICS, INC., priority 2022, dated 2026).

Consider `Cc1nc2n(c(=O)c1CCN1CCC(c3noc4cc(F)ccc34)CC1)CCCC2` [risperidone, Risperidone], for which the “escape failures compared to vehicle” value is reported as “increase”.
